Amino acid sequences for entries named in this document (tags omitted).
Protein AF-9 (Homo sapiens), P42568, UniProt P42568, whole entry, looked up: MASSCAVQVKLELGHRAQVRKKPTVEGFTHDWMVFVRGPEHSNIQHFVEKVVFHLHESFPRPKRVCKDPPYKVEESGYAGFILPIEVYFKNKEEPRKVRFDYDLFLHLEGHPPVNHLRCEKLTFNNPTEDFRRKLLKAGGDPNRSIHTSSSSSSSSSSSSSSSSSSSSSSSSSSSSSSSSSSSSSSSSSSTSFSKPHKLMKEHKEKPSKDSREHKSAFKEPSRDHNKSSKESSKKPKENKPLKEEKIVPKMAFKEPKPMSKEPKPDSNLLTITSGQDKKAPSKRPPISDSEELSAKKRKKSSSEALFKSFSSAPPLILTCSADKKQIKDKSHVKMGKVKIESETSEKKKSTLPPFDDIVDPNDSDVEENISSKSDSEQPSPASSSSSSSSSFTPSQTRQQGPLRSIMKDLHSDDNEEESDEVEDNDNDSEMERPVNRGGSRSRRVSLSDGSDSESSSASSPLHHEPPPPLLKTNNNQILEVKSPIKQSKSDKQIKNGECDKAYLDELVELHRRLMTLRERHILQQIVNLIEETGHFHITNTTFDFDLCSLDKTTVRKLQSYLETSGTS

# Screening data: PubChem, Broad Institute
# A selection: hits, their analogues and other compounds. The true share with any hit is near 1.3%.
# E-sel inducer – E-selectin induction in HUVECs, primary screen, imaging, HUVEC, immunofluorescence imaging, single point; 0.37% of 260,000 active; AID 686992, 2013; normalized: neutral wells 0, TNF-alpha wells 100; P16581; activation, % at 7.58 µM;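 active = mean E-selectin-positive cell signal at least 10% of the positive control, reached in at least 60% of replicates, without over 20% cell loss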
#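 Test system – human umbilical vein endothelial cells (HUVEC), E-selectin induction · Input – 3,000 HUVEC seeded per well · Buffer or medium – EGM-2, gelatin · Compound dosing – single-point compound dose · Detection – immunofluorescence imaging · Measure – percent E-selectin-positive cells · Controls – TNF-alpha high, DMSO low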
# ARNT TACC3 PPI – disruptors of ARNT/TACC3 protein interaction, primary screen, biochemical, AlphaScreen, single concentration. Transforming acidic coiled-coil-containing protein 3 (Homo sapiens), Q9Y6A5. AlphaScreen His-ARNT PAS-B/GST-TACC3 binding, luminescence; TACC3 fragment carries E629A point mutation. inhibition, % at 9.99 µM. 0.66% of 390,000 active;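 active = mean inhibition of replicates at least 50% and at least half of replicates each reaching 50%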;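 also: 0% = complete ARNT plus TACC3 wells and 100% = ARNT alone without TACC3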
# UUG fidelity – yeast start codon fidelity modulation; actives 0.13% (n = 350,000); activity score, % at 18.7 µM; S. cerevisiae UUG-firefly luciferase reporter, luminescence/redox ratio;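 active = replicate mean at a twofold rise or more, about +100% in these data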;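 note: firefly luciferase made from a UUG start codon reports start codon fidelity; reporter light over untreated wells divided by growth signal over untreated wells; some hits fall short of that in this replicate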
# ERAP1 inh – human ERAP1 aminopeptidase inhibitors, primary screen, biochemical, single point, plate reader; Endoplasmic reticulum aminopeptidase 1 (Homo sapiens), Q9NZ08; recombinant ERAP1, Leu-AMC fluorescence, 60 min; inhibition, % at 10.7 µM; 0.15% of 340,000 active;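 active = mean replicate inhibition of at least 30%, or all replicates individually reaching that 30% level; inactive = mean below 30% and not every replicate reaching it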;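 also: 0% = neutral control wells and 100% = L-leucinethiol positive control wells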
# AF4-AF9 inh – inhibitors of AF4 peptide binding to AF9, primary screen, biochemical, AlphaScreen, biotin-AF4 peptide, FLAG-AF9, single point; Protein AF-9 (Homo sapiens), P42568; inhibition, % at 10 µM; 0.47% of 350,000 active; AID 651704, 2012;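 active = every replicate reaching a set inhibition limit, whatever the replicate mean, cut at about 25% in these data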;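 also: 0% = plate neutral control median and 100% = total signal loss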
# S100A4 MyoIIA – inhibitors of S100A4-myosin IIA peptide binding, primary screen, biochemical, fluorescence polarization, TAMRA-MyoIIA peptide. inhibition, % at 10.7 µM. 0.14% of 360,000 active;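 active = mean inhibition of at least 70% across replicates, with every replicate also reaching that level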
#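 Assay system: human S100A4 monomer with TAMRA-labelled myosin IIA peptide / Buffer or medium: Calcium-containing HEPES buffer, pH 7.2 / Reagent: TAMRA-labelled myosin IIA heavy-chain peptide probe, 5 nM / Compound: one dose per compound / Timing: polarization read 5 min after assay mix addition, stable 5–60 min / Benchmarks: neutral control DMSO, positive control TFP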
# * marks the source's active call; other numbers are inactive results; . = no result.
no.	SMILES	E-sel inducer	ARNT TACC3 PPI	UUG fidelity	ERAP1 inh	AF4-AF9 inh	S100A4 MyoIIA
1	COc1ccc(C(=O)O)cc1S(=O)(=O)N1CCCc2ccccc21	.	11.4*	-8.6	-2.6	-4.6	-1.2
2	CN1C(=O)c2cc(NC(=O)c3ccccc3Cl)ccc2OC[C@@H]2O[C@@H](CC(=O)NCC(F)(F)F)CC[C@H]21	.	2.6	.	1.0	-14.6	126.7*
3	CC(C)C(=O)Nc1ccc2c(c1)C(=O)N(C)[C@H]1CC[C@H](CC(=O)Nc3ccccc3)O[C@@H]1CO2	0.0	-17.0	3.3	1.0	-2.7	0.9
4	CC(C)C(=O)Nc1ccc2c(c1)C(=O)N(C)[C@H]1CC[C@H](CC(=O)Nc3cccc(F)c3)O[C@@H]1CO2	-0.1	2.6	2.7	-1.3	.	78.5*
5	COCC(=O)N1[C@H](CO)[C@@H](c2ccccc2)C12CN(C(=O)Cc1ccccn1)C2	0.1	.	.	2.0	-4.5	96.8*
6	COCC(=O)N1[C@@H](CO)[C@@H](c2ccccc2)C12CN(C(=O)Cc1ccccn1)C2	0.3	.	.	-1.3	-3.7	6.6
7	CN1c2ccccc2N(C)C1(C)c1ccccc1	1.7	35.6	.	4.3	49.4*	66.8
8	CN1C(=O)N(C)C2(c3ccccc3)NC(=O)NC12c1ccccc1 (stereo not drawn)	.	21.2	0.9	.	.	.

# Shown as a hit in S100A4 MyoIIA, of those listed so far:
no. | Compound | ARNT TACC3 PPI | UUG fidelity | ERAP1 inh | AF4-AF9 inh | S100A4 MyoIIA
2 | CN1C(=O)c2cc(NC(=O)c3ccccc3Cl)ccc2OC[C@@H]2O[C@@H](CC(=O)NCC(F)(F)F)CC[C@H]21 | 2.6 | . | 1.0 | -14.6 | 126.7*
4 | CC(C)C(=O)Nc1ccc2c(c1)C(=O)N(C)[C@H]1CC[C@H](CC(=O)Nc3cccc(F)c3)O[C@@H]1CO2 | 2.6 | 2.7 | -1.3 | . | 78.5*
5 | COCC(=O)N1[C@H](CO)[C@@H](c2ccccc2)C12CN(C(=O)Cc1ccccn1)C2 | . | . | 2.0 | -4.5 | 96.8*

# (more compounds)
no.	SMILES	E-sel inducer	ARNT TACC3 PPI	UUG fidelity	ERAP1 inh	AF4-AF9 inh	S100A4 MyoIIA
9	CCN1c2ccccc2N(C)C1(C)c1ccccc1 (stereo not drawn)	.	64.4*	-16.9	.	.	.
10	Cc1ccc(S(=O)(=O)N(C)C[C@@H]2Oc3ccc(NC(=O)CCC(F)(F)F)cc3CC(=O)N([C@H](C)CO)C[C@@H]2C)cc1	0.7	-6.2	15.7	0.5	-0.7	-5.9
11	Cc1ccccc1S(=O)(=O)N1CC[C@@H]2[C@@H](CO)Nc3ccc(-c4ccccc4F)cc3[C@@H]21	-0.8	2.0	-25.5	-1.0	3.6	3.6
12	Cc1c2cc[n+](CCN3CCCCC3)cc2c(C)c2c1[nH]c1ccc(O)cc12	.	49.1*	.	.	.	.
13	CC1=NN(c2ccccc2)C(=O)C1/C=C1/NC(=S)NC1=O (stereo not drawn)	.	.	-10.5	4.3	2.0	-7.6
14	CC1=NN(c2ccccc2)C(=O)C1C=Nc1ccc(N(C)C)cc1 (stereo not drawn)	.	32.1	-8.0	.	30.8*	-2.8
15	C[C@@H]1CN([C@H](C)CO)C(=O)CCCn2nncc2CO[C@H]1CN(C)S(=O)(=O)c1ccccc1C#N	-0.4	.	.	.	.	.
16	Cc1noc(C)c1NC(=O)Nc1ccc2c(c1)CC(=O)N([C@@H](C)CO)C[C@@H](C)[C@H](CN(C)Cc1ccc(C(=O)O)cc1)O2	15.8	-4.1	-3.2	1.8	-0.4	8.9
17	Cc1ncc(CO)c(/C=N/NC(=S)Nc2ccc(F)cc2)c1O	0.0	53.8*	.	.	.	.
18	Cc1ncc(CO)c(/C=N/Nc2ccc(C(F)(F)F)cn2)c1O	0.0	71.7*	7.1	-2.6	7.5	-1.0
19	Cc1ncc(CO)c(/C=N/N=C/c2ccccc2O)c1O	.	-4.9	.	.	.	.
20	Cc1ccc(S(=O)(=O)N[C@H]2CC[C@@H](CCNC(=O)CN3CCOCC3)O[C@H]2CO)cc1	-1.9	-12.4	-15.6	-3.1	-0.3	-4.1
21	Cc1ccc(NC(=S)NCC2CCN(C(C)c3ccccc3)C2)cc1C (stereo not drawn)	0.2	-13.6	.	1.9	25.1*	8.1
22	Cc1cc(=O)oc2c3c(cc(OCC(=O)N4CCC[C@H]4C(=O)O)c12)OC(C)(C)CC3	.	32.4*	-11.3	16.2	8.6	-3.7
23	COc1ccc(NS(=O)(=O)c2ccc3c(c2)CCCN3C(C)=O)cc1	121.2*	2.5	-9.0	-0.6	-24.5	-10.8
24	COc1cccc(NS(=O)(=O)c2ccc3c(c2)CCCN3C(C)=O)c1	.	8.4	.	-1.0	-2.9	-11.4

# Record cards, as listed above. Values in the order: E-sel inducer	ARNT TACC3 PPI	UUG fidelity	ERAP1 inh	AF4-AF9 inh	S100A4 MyoIIA
# `Cc1ccc(S(=O)(=O)N[C@H]2CC[C@@H](CCNC(=O)CN3CCOCC3)O[C@H]2CO)cc1` in the list: -1.9	-12.4	-15.6	-3.1	-0.3	-4.1
# `Cc1ncc(CO)c(/C=N/N=C/c2ccccc2O)c1O` in the list: .	-4.9	.	.	.	.

# Remaining list, next part.
no.	SMILES	E-sel inducer	ARNT TACC3 PPI	UUG fidelity	ERAP1 inh	AF4-AF9 inh	S100A4 MyoIIA
25	CCCNC(=O)N1[C@H](CO)[C@@H](c2ccccc2)[C@H]1CNC(=O)c1ccc(F)cc1	-0.2	0.2	8.2	.	.	.
26	O=C(Nc1nnc2n1CCS2)c1ccc(Br)o1	-0.3	45.6*	-21.5	1.3	-1.9	-4.0
27	Cc1cccnc1NC(=O)c1ccc(Br)o1	-0.2	-3.1	-15.5	-4.9	-4.7	-5.3
28	CC(C)NC(=O)Nc1ccc2c(c1)C(=O)N([C@H](C)CO)C[C@@H](C)[C@@H](CN(C)Cc1ccc(-c3ccccc3)cc1)O2	0.1	.	.	-2.9	8.9	1.3
29	COc1ccc(CSc2nncn2N)cc1Br	.	active	-16.3	.	.	.
30	COc1ccc(CSc2nnc(C)n2N)cc1Br	.	-1.8	-15.7	.	.	.
31	N#Cc1ccc(-c2ccc3c(c2)[C@@H]2[C@@H](CCN2S(=O)(=O)c2cccc(F)c2)[C@@H](CO)N3)cc1	-1.1	-27.5	0.5	-0.2	1.2	0.4
32	CCN(CC)S(=O)(=O)c1ccc(N2CCOCC2)c(NC(=O)CSCc2c(C)noc2C)c1	.	0.9	2.5	-0.2	3.9	-4.0
33	Cc1noc(C)c1CSCC(=O)Nc1cc(C(F)(F)F)ccc1N1CCOCC1	40.7*	-6.6	-15.0	2.0	-1.7	-1.9
34	CN(C)c1ccc(/C=C/C=N/Nc2nc(N3CCOCC3)nc(N3CCOCC3)n2)cc1	63.0*	14.2	-13.6	-3.6	9.5	-13.3
35	COc1cc(/C=C2/C(=O)N(c3ccc(Br)cc3)N=C2C)cc(OC)c1OC	.	10.5	-24.3	0.9	.	-0.9
36	COc1cc(/C=C2/C(=O)N(c3ccc(C(=O)O)cc3)N=C2C)cc(OC)c1O	0.0	11.9*	-16.9	6.1	-0.2	-1.2
37	Cc1cc(NCc2ccccn2)n2nc(C)c(-c3ccc(Cl)cc3)c2n1	47.1*	-3.9	-36.5	.	-1.3	3.1
38	C=CCn1c(Cc2csc(N)n2)nnc1SCc1ccc(C(=O)OC)cc1	.	28.4	-31.1	-5.0	-21.6	2.7
39	C=CCn1c(Cc2csc(N)n2)nnc1SCC(=O)OCC	.	46.1*	.	-2.7	-68.5	-5.8
40	COCC(=O)Nc1ccc2c(c1)OC[C@H](C)N(C(=O)C1CCCC1)C[C@@H](C)[C@@H](OC)CN(C)C2=O	0.0	7.6	.	.	.	.
41	COc1ccc(C#Cc2ccc([C@H]3[C@H](CO)N4CCCCN(Cc5ccccc5F)C[C@@H]34)cc2)cc1	0.7	24.5	-33.3	-2.1	32.0*	-8.7
42	COc1ccc(C#Cc2ccc([C@@H]3[C@@H](CO)N4CCCCN(Cc5ccccc5F)C[C@@H]34)cc2)cc1	0.2	-4.4	-4.7	-0.8	2.0	-17.0
43	OC[C@@H]1[C@@H](c2ccc(C#Cc3cccnc3)cc2)[C@@H]2CN(Cc3ccccc3F)CCCCN12	-0.4	-2.8	17.0	-2.8	0.2	13.4
